The text below walks through data of patent US8361996B2, “Imidazolyl substituted steroidal and indan-1-one derivatives” (Council of Scientific and Industrial Research, priority 2005, dated 2013).

Chains of the proteins cited; added tags and fusions are not shown.
UniProt P11511, whole entry: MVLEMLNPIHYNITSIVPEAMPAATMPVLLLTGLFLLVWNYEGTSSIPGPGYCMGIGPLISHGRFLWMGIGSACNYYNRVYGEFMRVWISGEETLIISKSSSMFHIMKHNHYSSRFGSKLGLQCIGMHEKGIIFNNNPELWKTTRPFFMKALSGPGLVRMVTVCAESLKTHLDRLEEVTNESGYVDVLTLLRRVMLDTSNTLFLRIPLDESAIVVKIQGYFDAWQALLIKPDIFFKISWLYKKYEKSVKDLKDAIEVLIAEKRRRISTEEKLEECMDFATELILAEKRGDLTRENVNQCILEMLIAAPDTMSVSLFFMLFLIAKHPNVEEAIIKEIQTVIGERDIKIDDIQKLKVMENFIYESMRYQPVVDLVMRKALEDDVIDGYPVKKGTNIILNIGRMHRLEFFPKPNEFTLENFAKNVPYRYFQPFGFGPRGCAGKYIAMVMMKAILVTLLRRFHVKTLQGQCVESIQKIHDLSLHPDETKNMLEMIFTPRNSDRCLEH

The target of this assay is aromatase (CYP19) (Homo sapiens, UniProt P11511). The conditions noted are these: human placental microsomes and [1β,2β-3H] testosterone.

Structures are written as SMILES.

On to `COc1cc(/C=C2\C[C@H]3[C@@H]4CCC5=CC(=O)CC[C@]5(C)[C@H]4CC[C@]3(C)C2=O)ccc1OCCCn1ccnc1`, for which the “aromatase inhibitory activity (in words)” value is given as “significant aromatase inhibitory activity”.
